The data set can be described thus: Saturation solubility of oxidized glutathione hydrate in water. It is filed as physicochemical. As to conditions: H2O, 30° C. From the text: Moreover, compared with the powdered crystals of the hexahydrate which are prone to generate static electricity and suffer a large amount of loss during a packaging process, the granular crystals of the obtained heptahydrate are more suitable for industrial production.

oxidized glutathione monohydrate came in with a Saturation solubility of 13.5 mg/mL.

The values above are taken from patent US20250042939A1, “PREPARATION METHOD FOR OXIDIZED GLUTATHIONE AND CRYSTAL FORM AND IMPURITY THEREOF” (SHENYANG XINGQI PHARMACEUTICAL CO., LTD., priority 2021, published 2025).
